Results reported in article PMC3962266 (Journal of medicinal chemistry, 2013).

Test system: human platelet-rich plasma
Experiment: Platelet aggregation assay
Assay type: cell-based
Conditions: 3 μM, collagen stimulation

SMILES: CCCCNc1ncc(C(=O)NCc2ccc(-n3ccnc3)cc2)c(N[C@H]2CC[C@H](O)CC2)n1 [Compound 23]
- ATP release (platelet activation and degranulation): decreased to a similar extent
